We go through one substance from article PMC5413848, “Optimization of intestinal microsomal preparation in the rat: A systematic approach to assess the influence of various methodologies on metabolic activity and scaling factors” (Biopharmaceutics & Drug Disposition, 2017).

Read-outs that look alike come from different tables or passages of the source.

“4‐nitrophenol glucuronide [4‐NP Glucuronide]”: the “Mean 4-NP glucuronide formation” value by setting is: (pool 1 following one FT cycle) 70.4 nmol/min/min; (pool 2 following one FT cycle) 71.4 nmol/min/min.
